Entries after “also recorded” stand apart in the source; their conditions may differ.
Assays:
[1] = literature case reports; cited from earlier work
[2] = tested on: C5b-9 deposition on PIGA null TF-1 cells; assay: Flow cytometry for C5b-9 deposition; format: cell-based, human; details: for Inhibition of C5b-9 deposition induced by APS patient sera: APS patient sera on PIGA null TF-1 cells; for Inhibition of C5b-9 deposition induced by CAPS sera: CAPS patient sera (e.g. CAPS5); for Inhibition of C5b-9 deposition induced by patient-derived IgG anti-β2GPI antibody: anti-β2GPI from thrombotic APS patient APS21 added to normal human serum
Protocol: (§1) Patient derived anti-β2GPI antibodies. Anti-β2GPI antibodies from two patients were affinity purified using a column of Affigel HZ to which purified human β2GPI was coupled (Bio-Rad Laboratories, Hercules, Calif.), as previously described.^43 IgG purity was assessed by reduced SDS-PAGE. Complement activation (C5b-9 deposition and complement dependent cell killing in mHam) induced by patient-derived anti-β2GPI antibodies was tested by adding patient-derived anti-β2GPI antibodies to normal human serum (Cat. NHS, Complement Technology, Inc.).
Flow cytometry for C5b-9 deposition. Flow cytometry was performed to evaluate cell surface deposition of C5b-9 deposition on PIGA null TF1 cells. Cells were seeded in V-bottom 96-well plates (1.2×10^5 cells/well) either in GVB^0.MgEGTA (pH 6.4) buffer for alternative pathway activation or GVB++ (pH 7.4) buffer for classical pathway activation followed by addition of APS patient serum (or patient-derived aPL added to normal human serum). The reaction was incubated for 15 min at 37° C., and stopped by adding FACS buffer/EDTA. Cell pellets were separated by centrifugation at 1900 rpm for 3 minutes at room temperature and then stained with Alexa 488 conjugated anti-C3c antibody (Cat. 4212, Abcam, dilution at 1:100) and […] monoclonal primary antibody (Cat. 66768, Abcam, dilution at 1:100), followed by Alexa 647 conjugated secondary antibody. C5b-9 deposition was measured by a BD FACSCalibur. Ten thousand events were recorded per sample and analyzed using FlowJo software version 10.5.3 (FlowJo Inc). Normal human serum was used as a negative control for flow cytometry assays. We also evaluated the effect of adding anti-C5 mAb and ACH-4471 on C5b-9 deposition.

[3] = Eculizumab treatment of patients with CAPS / thrombotic APS; format: in vivo, human; details: CAPS patient; acute renal failure, cardiac injury, thrombocytopenia within 2 weeks of renal transplant
[4] = tested on: PIGA null TF-1 cells; assay: Modified Ham (mHam) assay, complement-dependent cell killing; format: cell-based, human; details: anti-C5 mAb 10 μg, ACH-4471 0.33 μM; for Inhibition of mHam cell killing induced by CAPS sera: CAPS patient sera
Protocol: as §1
Modified Ham assay. The mHam assay has been validated to assess complement activation in patient serum and was performed as described previously.^42,44 Briefly, PIGA null TF-1 cells were plated in 96-well plates at a density of 6700 cells/well and cultured until confluent. Briefly, PIGA null TF-1 cells were plated in 96-well plates in gelatin veronal buffer with Ca and Mg (GVB^++) (Cat. B102, Complement Technology, Inc.) at a density of 6,700 cells/well. Test serum (20 μL at 1:5 dilution) was added to cells and incubated at 37° C. for 45 minutes with constant shaking. After incubation, cells were again washed with phosphate buffered saline and incubated with the cell proliferation reagent, 4-[3-(4-lodophenyl)-2-(4-nitrophenyl)-2H-5-tetrazolio]-1.3-benzene disulfonate/WST-1 (Roche, Switzerland) at dilution 1:10 for 2 hours at 37° C. Absorbance was measured in a plate reader (ELX808, BioTeK, Winooski, Vt.) at 450 nm with a reference wave length at 630 nm. The colorimetric assay is based on cleavage of the tetrazolium salt, WST-1, by mitochondrial dehydrogenases in viable cells. The percentage of live cells was calculated as the ratio of absorbance of the sample to its heat inactivated control multiplied by 100. The percentage of non-viable cells (100−percentage viable cells) is a measure of complement activation. Based on prior experiments, 20% non-viable cells (cell killing) is established as the threshold for a positive test.^42,44 All assays were performed in triplicate for replication.
As a positive control for the mHam, Shiga toxin^45 (Cat. SML0562, Sigma-Aldrich, St. Louis, Mo.) 10 μg/mL was added to NHS and incubated at 37° C. for 15 minutes, followed by the addition of the cells. Heat-inactivated serum was used an internal negative control for each sample. To confirm complement dependence of cell killing, the mHam was performed after adding an anti-β5 monoclonal antibody (10 μg) (Alexion pharmaceuticals). The assays were also performed with a small molecule factor D inhibitor^46 (0.33 μM) (ACH-4471, Achillion Pharmaceuticals) to evaluate the contribution of the alternative versus classical/lectin pathways.

[5] = listed as anti-β5 monoclonal antibody

B1: eculizumab (antibody, chains of the INN, looked up)
heavy: QVQLVQSGAEVKKPGASVKVSCKASGYIFSNYWIQWVRQAPGQGLEWMGEILPGSGSTEYTENFKDRVTMTRDTSTSTVYMELSSLRSEDTAVYYCARYFFGSSPNWYFDVWGQGTLVTVSSASTKGPSVFPLAPCSRSTSESTAALGCLVKDYFPEPVTVSWNSGALTSGVHTFPAVLQSSGLYSLSSVVTVPSSNFGTQTYTCNVDHKPSNTKVDKTVERKCCVECPPCPAPPVAGPSVFLFPPKPKDTLMISRTPEVTCVVVDVSQEDPEVQFNWYVDGVEVHNAKTKPREEQFNSTYRVVSVLTVLHQDWLNGKEYKCKVSNKGLPSSIEKTISKAKGQPREPQVYTLPPSQEEMTKNQVSLTCLVKGFYPSDIAVEWESNGQPENNYKTTPPVLDSDGSFFLYSRLTVDKSRWQEGNVFSCSVMHEALHNHYTQKSLSLSLG
light: DIQMTQSPSSLSASVGDRVTITCGASENIYGALNWYQQKPGKAPKLLIYGATNLADGVPSRFSGSGSGTDFTLTISSLQPEDFATYYCQNVLNTPLTFGQGTKVEIKRTVAAPSVFIFPPSDEQLKSGTASVVCLLNNFYPREAKVQWKVDNALQSGNSQESVTEQDSKDSTYSLSSTLTLSKADYEKHKVYACEVTHQGLSSPVTKSFNRGEC
Reported clinical efficacy of eculizumab in CAPS and refractory thrombotic APS [1]: efficacy; also recorded: responded to treatment; also recorded: successful use
Inhibition of C5b-9 deposition induced by APS patient sera [2]: completely blocked
Inhibition of C5b-9 deposition induced by APS patient sera ([2]; listed as anti-CS antibody): blocked
Inhibition of C5b-9 deposition induced by APS patient sera ([2]; listed as anti-β5 antibody): inhibited
Inhibition of C5b-9 deposition induced by CAPS sera [2]: blocked
Inhibition of C5b-9 deposition induced by CAPS sera ([2]; listed as anti-CS antibody): more so
Inhibition of C5b-9 deposition induced by CAPS sera [2, 5]: completely blocked
Inhibition of C5b-9 deposition induced by patient-derived IgG anti-β2GPI antibody [2]: blocked completely
Inhibition of C5b-9 deposition induced by patient-derived IgG anti-β2GPI antibody ([2]; listed as anti-β5 monoclonal Ab): inhibited
Clinical outcome of eculizumab treatment [3]: successfully treated
Inhibition of cell killing in the mHam induced by APS sera ([4]; APS patient sera): blocked
Inhibition of mHam cell killing induced by CAPS sera [4]: attenuated
Inhibition of mHam cell killing induced by CAPS sera ([4]; listed as anti-CS antibody): more so
Inhibition of mHam cell killing induced by CAPS sera [4, 5]: completely blocked
